# Test results from PubChem BioAssay AID2563 (Broad Institute, 2010).
# By UniProt entry, the sequences of proteins in these tests, tags left out.
# UniProt Q03530, whole entry: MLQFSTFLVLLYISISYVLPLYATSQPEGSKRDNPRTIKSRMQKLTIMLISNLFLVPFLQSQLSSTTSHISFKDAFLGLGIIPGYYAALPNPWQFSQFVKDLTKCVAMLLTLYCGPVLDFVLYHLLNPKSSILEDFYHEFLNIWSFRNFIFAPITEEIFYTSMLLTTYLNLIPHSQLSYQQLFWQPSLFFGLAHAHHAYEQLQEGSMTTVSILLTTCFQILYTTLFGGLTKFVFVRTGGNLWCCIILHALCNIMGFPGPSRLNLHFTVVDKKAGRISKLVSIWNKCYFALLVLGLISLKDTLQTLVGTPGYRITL
# The entries are a selection whose mix differs from that of the whole data set. Calls of active or inactive are those of the source.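 How the source made its calls: active means fall in fluorescence gain of 50% or more versus controls, with final raw signal at or below 3038400; inconclusive means same 50% fall but final raw signal above 3038400; inactive means fall in fluorescence gain under 50%.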
# Target: CAAX prenyl protease 2 (Saccharomyces cerevisiae (strain ATCC 204508 / S288c)) (UniProt Q03530)
# Test: blockers of Rce1 CaaX peptide cleavage – biochemical, fluorescence, cell-free homogeneous, primary screen (AID 2563)
# Details: yeast membranes, quenched prenylated peptide cleavage fluorescence
row,Compound,outcome
1,C[N+]1=C2C=CC=CC=C2SC12C([N+](=O)[O-])=CC([N+](=O)[O-])=C[C-]2[N+](=O)[O-] (stereo not given),inactive
2,COc1ccccc1OP(C)(=O)Nc1ccccc1Br (stereo not given),inactive
3,Nc1ccc([As](=O)(O)c2ccc(N)cc2)cc1,inactive
4,CC(C)(C)c1ccc(OP(C)(=O)O)cc1,inactive
5,CP(=O)(Nc1ccc(Cl)cc1)Oc1ccc(F)cc1 (stereo not given),inactive
6,Cc1ccc(OP(=O)(Nc2nccs2)Oc2ccc(C)cc2)cc1,inactive
7,COc1ccccc1OP(=O)(Nc1ccc(C)cn1)Oc1ccccc1OC,inactive
8,COc1ccc(OP(C)(=O)Nc2ccccn2)cc1 (stereo not given),inactive
9,CN1CCCC(OC(=O)C(c2ccccc2)c2ccccc2)C1 (stereo not given),inactive
10,CN(C)CCOC(=O)C(O)(c1ccccc1)C1CCCC1 (stereo not given),inactive
11,Clc1ccc(Cl)c(NC2=NCC(CBr)S2)c1 (stereo not given),inactive
12,NC(=O)c1cc([N+](=O)[O-])cc([N+](=O)[O-])c1N,inactive
13,Cc1ccc(N/C(=N/P(=O)(N2CCOCC2)N2CCOCC2)N2CCOCC2)cc1,inactive
14,COc1ccccc1OP(C)(=O)Nc1ccc(Br)cc1 (stereo not given),inactive
15,COc1ccccc1OP(C)(=O)Nc1ccc(C)cc1C (stereo not given),inactive
16,CP(=O)(Nc1ccccn1)Oc1ccccc1 (stereo not given),inactive
17,CCc1ccc(OP(C)(=O)O)cc1,inactive
18,Nc1cc(N)c2nonc2c1[N+](=O)[O-],inactive
19,Cc1c(NP(C)(=O)Oc2ccc(C(C)C)cc2)c(=O)n(-c2ccccc2)n1C (stereo not given),inactive
20,O=[N+]([O-])c1cc([N+](=O)[O-])c(Nc2ccccn2)c([N+](=O)[O-])c1,inactive

row,Compound,outcome
1,CC(C)CC(=O)NC(Sc1ccc(Cl)cc1)C(Cl)(Cl)Cl (stereo not given),inactive
2,O=C(NC(Sc1ccncn1)C(Cl)(Cl)Cl)c1ccccc1 (stereo not given),inactive
3,Cc1c2non([O-])c-2c(C)[n+](=O)[n+]1[O-],inactive
4,Oc1ccccc1CNc1ccccn1,inactive
5,COc1ccccc1OP(C)(=O)Nc1ccc(C)c(C)c1 (stereo not given),inactive
6,CN(C(=O)Cc1ccc(Cl)c(Cl)c1)[C@H]1CCCC[C@@H]1N1CCCC1,inactive
7,Cc1ccc(NP(=O)(Oc2ccccc2F)Oc2ccccc2F)nc1,inactive
8,Cc1cc(SC(NC(=O)c2ccc(F)cc2)C(Cl)(Cl)Cl)ncn1 (stereo not given),inactive
9,CCOP(=O)(Nc1ccccc1)OCC,inactive
10,COc1ccc(OP(C)(=O)Nc2ccccc2Br)cc1 (stereo not given),inactive
11,CC(=O)Nc1ccc([As](=O)(O)O)cc1,inactive
12,O=C(O)c1ccccc1[As](=O)(O)O,inactive
13,O=P(Nc1nc2ccc(Cl)cc2s1)(c1ccccc1)c1ccccc1,inactive
14,Cc1cc(C)cc(OP(C)(=O)Nc2cccc(C(F)(F)F)c2)c1 (stereo not given),inactive
15,CCN(N=Nc1nonc1N)c1nonc1N,inactive
16,CP(=O)(Nc1ccc(Cl)cc1Cl)Oc1ccccc1 (stereo not given),inactive
17,CP(=O)(OCCOc1ccccc1)OCCOc1ccccc1,inactive
18,Nc1cccc2ccc([As](=O)(O)O)cc12,inactive
19,Cc1nc2ccc3ccccc3c2o1.O=[N+]([O-])c1cc([N+](=O)[O-])c(O)c([N+](=O)[O-])c1,inactive
20,O=[N+]([O-])c1cc([N+](=O)[O-])c(CCN2CCOCC2)c([N+](=O)[O-])c1,inactive
